## Apparent affinities of Ab-95 variants for a coronavirus HR2 peptide

The measurements come from Engelhart et al. 2022 (doi:10.1038/s41597-022-01779-4) through the FLAb antibody collection.

Target: peptide PDVDLGDISGINAS, taken from heptad repeat 2 (HR2) of SARS-CoV-2 spike.

Each scFv is VH, a 15-residue (Gly4Ser)3 linker, VL, as in the parent Ab-95, and differs from it in the CDRs of the light chain only.
VH: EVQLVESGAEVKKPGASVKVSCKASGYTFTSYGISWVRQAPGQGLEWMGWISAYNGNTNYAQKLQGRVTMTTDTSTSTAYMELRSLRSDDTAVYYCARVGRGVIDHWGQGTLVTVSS
VL: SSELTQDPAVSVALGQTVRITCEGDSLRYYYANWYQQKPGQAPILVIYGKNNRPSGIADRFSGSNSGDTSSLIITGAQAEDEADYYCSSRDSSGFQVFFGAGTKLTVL

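Variants in AAYL52 differ from the parent at up to three CDR positions; double and triple changes were sampled at random. AlphaSeq pools MATa yeast showing the antibodies with MATalpha yeast showing the peptide. Binding brings cells together so that they mate, and sequencing counts the barcode pairs among the diploids. Each replicate has its own calibration line, from reference interactions of the BCL2 family. Mating was done three times.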

The parent's light chain CDRs are EGDSLRYYYAN, GKNNRPS, SSRDSSGFQVF; each variant's own CDRs replace them letter for letter.
Scale: log10 of Kd in nM, estimated from mating counts; low values are strong binders.
Averages over replicates are reported, and they cover detected replicates only.
A pair that was not seen in any replicate is written "nd"; this usually means weak binding, but a binder can also be missed.
Parent in this assay: reference entry 2.31, copy in this library 2.25.
As a blank, each scFv also met three strains without target: over library AAYL52, 28% of these pairings were detected, typically at 3.91 and seldom below 2.90.

1.18 (3 of 3 replicates): EGDSLRAEYAN / GKNNRPS / SSRDSSGFQEF.
3.41 (2 of 3 replicates): EGDSLRRYYAN / GKNNRTS / SSRDKSGFQVF.
3.79 (2 of 3 replicates): EGDSLRHYYMN / GKNNRPS / SSFDSSGFQVF.
nd (0 of 3 replicates): EGDSLRYYYAC / RCNNRPS / SSRDSSGFQVF.
4.31 (3 of 3 replicates): EDDSLRYYYAN / GKSNRPS / SSSDSSGFQVF.
3.56 (3 of 3 replicates): EGDSLRWYYAN / GKNLRPR / SSRDSSGFQVF.
2.51 (3 of 3 replicates): EGDSLRYPYAI / GKNNRPL / SSRDSSGFQVF.
5.14 (2 of 3 replicates): EVDSLRYYYAR / GKNNRPS / SSRDSSGGQVF.
3.51 (3 of 3 replicates): EGDSLRYYNAN / GKNNRPV / SSRDSSGFQVI.
5.43 (1 of 3 replicates): EGDSLRYYYAN / GKNNPPS / SSRDSSGFQFP.
nd (0 of 3 replicates): PGDSLRYYYAN / GKNNRPS / SSRDSSGFQMF.
4.88 (3 of 3 replicates): EGDSLRYYYFA / GKNNRPS / ASRDSSGFQVF.
1.80 (3 of 3 replicates): EGDSLRYYKAN / GKNNRPD / SSRDSSGFQVF.
2.88 (3 of 3 replicates): EGDSLRYWYAN / GKNNRPS / SSRDSEGFQHF.
nd (0 of 3 replicates): EGDSLRYYQAN / GKNNRPS / CSRDSSGFQPF.
4.24 (2 of 3 replicates): EGDSLRYYYAN / GKNARPS / SSRDSSHFQCF.
4.21 (2 of 3 replicates): EGDMLRYYYGN / GKNNRPS / SSRDSSGSQVF.
nd (0 of 3 replicates): EGDSLRYYYWN / PKNNRPS / SSRDSSGFQWF.
2.82 (3 of 3 replicates): EGDSLRYFYAN / GTNQRPS / SSRDSSGFQVF.
4.52 (2 of 3 replicates): EGDSLRTYYAN / GKTNRPS / SSRDSWGFQVF.
2.69 (3 of 3 replicates): EGDKLCYYYAM / GKNNRPS / SSRDSSGFQVF.
2.03 (3 of 3 replicates): EGDSLRYYYAN / GKNNRPS / NSRDSSGFQRF.
2.72 (3 of 3 replicates): VGDSLRYYYAN / GKNRRGS / SSRDSSGFQVF.
3.78 (1 of 3 replicates): EIDSGRYYYAN / GKNNRPS / SSRDSHGFQVF.
3.26 (3 of 3 replicates): EHDMLRYYYAN / GKNNRPS / SSRDSSGFQVF.
3.93 (3 of 3 replicates): ERDSLRYYYAN / GKNFRPS / SSRDSSGFQVF.
4.22 (1 of 3 replicates): EGDSLRYYYAN / GKNNTPS / SWRDSSGKQVF.
4.33 (2 of 3 replicates): EGDSLRYYYAN / NKNNEPS / SSRDSSGFQVF.
2.37 (3 of 3 replicates): EGDSLRYYYAN / GKNERPS / SSRDSSGFQAF.
3.18 (3 of 3 replicates): EGDSLRYYYAN / GTNNRPA / CSRDSSGFQVF.
3.10 (3 of 3 replicates): RGDSLRYYYAN / GKNNRLS / TSRDSSGFQVF.
4.50 (1 of 3 replicates): EHDSQRYYYAN / GKNNRPS / LSRDSSGFQVF.
5.63 (1 of 3 replicates): EGDSLRFYYAN / KKNNRPS / SSRDSSGFFVF.
3.96 (1 of 3 replicates): EGDSLRPYYAN / GKNNRPS / SSRDSVGFQYF.
4.51 (2 of 3 replicates): EGDSLRYAYRN / GKNNRPS / SSRDSSGGQVF.
1.84 (3 of 3 replicates): EGDSLRYYYAN / GKNNRPS / DSRDSSGFQVM.
4.95 (2 of 3 replicates): EGDSLRYYYAN / GKNNWPS / SSRDSSGEWVF.
3.69 (3 of 3 replicates): EGDRLRPYYAN / GKNNRPS / SSFDSSGFQVF.
3.00 (3 of 3 replicates): EGDHLRYYYAN / GKNNRPS / QSRDSSGFQNF.
2.10 (3 of 3 replicates): EVDRLRTYYAN / GKNNRPS / SSRDSSGFQVF.
2.96 (1 of 3 replicates): DGDSLRYYYAN / GKNNRPS / SSRDSSMFQLF.
3.77 (2 of 3 replicates): EGDSLRYYYAN / FQNNRPG / SSRDSSGFQVF.